Measurements as given in patent US20020183271A1, “Methods of treatment involving human MDA-7” (priority 2000, published 2002).

Experiments:
SkBr3 (Her2+) = experiment: Herceptin / Ad-mda7 trypan blue exclusion assay; assay type: cell-based; conditions: Herceptin alone, 1 μg/mL, three days
Experimental: (§1) The breast cancer SkBr3 (Her2+) and MCF-7 (Her2-) cell lines were both obtained from ATCC. Cells were plated at a density of 1000 cells/well in Nunc 2-chamber slides and propagated in DMEM medium with 10% FBS. The following day, the cells were left untreated or treated with Ad-mda7 at (increasing MOIs: 0, 500, 1000 and 2000 vp/cell) without (M series) or with Herceptin (M+H series) at a final concentration of 1 μg/mL. The cells were washed after 3 hours and growth media (with or without Herceptin, as indicated) was replaced. Three days later viable cells were counted using the trypan blue exclusion assay (average of 3-4 fields) and plotted as shown in FIG. 15. Herceptin alone yields approximately 12% dead cells in both cell lines.

MCF-7 (Her2-) = experiment: Herceptin / Ad-mda7 trypan blue exclusion assay; assay type: cell-based, human; conditions: Herceptin alone, 1 μg/mL, three days
Experimental: as §1

“Herceptin: immunotherapy used at 1 μg/mL on breast cancer cell lines” was tested, and the dead cells (SkBr3 (Her2+)) was “approximately 12%” and the dead cells (MCF-7 (Her2-)) was “approximately 12%”.
